Results on 25 compounds are retold here after ChEMBL document CHEMBL1157721, “Bisquaternary pyridinium oximes: Comparison of in vitro reactivation potency of compounds bearing aliphatic linkers and heteroaromatic linkers for paraoxon-inhibited electric eel and recombinant human acetylcholinesterase” (2010).

Chains of the proteins cited; added tags and fusions are not shown. Lines headed by an entry give the natural chain unless they say otherwise; changes in a name come on top.
UniProt O42275: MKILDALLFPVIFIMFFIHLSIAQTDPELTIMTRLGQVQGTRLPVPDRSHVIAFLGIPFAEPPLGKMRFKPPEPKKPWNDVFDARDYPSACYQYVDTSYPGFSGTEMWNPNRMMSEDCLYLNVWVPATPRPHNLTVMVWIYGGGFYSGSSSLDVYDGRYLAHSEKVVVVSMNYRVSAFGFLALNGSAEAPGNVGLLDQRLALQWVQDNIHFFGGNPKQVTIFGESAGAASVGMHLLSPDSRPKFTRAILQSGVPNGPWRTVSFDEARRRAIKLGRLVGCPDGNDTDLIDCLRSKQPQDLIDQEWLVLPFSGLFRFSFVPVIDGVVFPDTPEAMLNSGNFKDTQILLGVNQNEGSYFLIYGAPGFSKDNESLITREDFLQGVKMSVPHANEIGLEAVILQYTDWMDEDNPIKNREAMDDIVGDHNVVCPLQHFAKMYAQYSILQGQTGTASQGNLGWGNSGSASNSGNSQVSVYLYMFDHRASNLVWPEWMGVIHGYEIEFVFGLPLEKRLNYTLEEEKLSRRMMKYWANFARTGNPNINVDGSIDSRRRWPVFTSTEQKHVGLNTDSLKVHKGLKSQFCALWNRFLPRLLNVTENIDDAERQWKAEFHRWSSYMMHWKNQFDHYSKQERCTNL
UniProt P22303: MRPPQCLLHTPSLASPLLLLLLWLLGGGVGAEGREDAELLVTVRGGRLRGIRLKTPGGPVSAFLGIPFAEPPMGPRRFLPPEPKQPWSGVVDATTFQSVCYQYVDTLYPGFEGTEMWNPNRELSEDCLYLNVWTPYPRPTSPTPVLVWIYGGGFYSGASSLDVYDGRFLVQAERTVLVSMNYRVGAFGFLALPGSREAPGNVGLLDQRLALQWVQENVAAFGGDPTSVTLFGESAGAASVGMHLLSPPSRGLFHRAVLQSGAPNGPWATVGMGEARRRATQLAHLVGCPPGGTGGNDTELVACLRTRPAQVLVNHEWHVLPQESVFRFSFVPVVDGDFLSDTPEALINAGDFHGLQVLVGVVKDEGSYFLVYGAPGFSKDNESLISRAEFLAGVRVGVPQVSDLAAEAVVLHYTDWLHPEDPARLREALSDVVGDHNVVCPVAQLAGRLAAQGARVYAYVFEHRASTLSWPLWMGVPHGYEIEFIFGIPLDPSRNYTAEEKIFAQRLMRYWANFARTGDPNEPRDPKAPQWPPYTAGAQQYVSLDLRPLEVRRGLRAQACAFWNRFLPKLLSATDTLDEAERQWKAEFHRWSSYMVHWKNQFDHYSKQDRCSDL

The inhibition is the drop in the measured response relative to a control, in per cent.

Experiment [1] deals with Acetylcholinesterase (Electrophorus electricus) (UniProt O42275). The experiment can be described thus: Reactivation of paraoxon-inhibited electric eel AChE assessed as enzyme activation at 1 mM by Ellman's assay. On the set-up: scale not given: the % may be the effect or the level left. For orientation: DTNB colorimetry detects thiols as they appear.
Experiment [2] has the same target. Put plainly: Reactivation of paraoxon-inhibited electric eel AChE assessed as enzyme activation at 10 uM by Ellman's assay. On the set-up: scale not given: the % may be the effect or the level left.
For experiment [3] the target is unchanged. The experiment can be described thus: Reactivation of paraoxon-inhibited electric eel AChE assessed as enzyme activation at 100 uM by Ellman's assay. On the set-up: scale not given: the % may be the effect or the level left.
In experiment [4] the target is Acetylcholinesterase (Homo sapiens) (UniProt P22303). Put plainly: Reactivation of paraoxon-inhibited human recombinant AChE assessed as enzyme activation at 1 mM by Ellman's assay. On the set-up: scale not given: the % may be the effect or the level left.
Experiment [5] shares this target. Put plainly: Reactivation of paraoxon-inhibited human recombinant AChE assessed as enzyme activation at 10 uM by Ellman's assay. On the set-up: scale not given: the % may be the effect or the level left.
Experiment [6] shares this target. Put plainly: Reactivation of paraoxon-inhibited human recombinant AChE assessed as enzyme activation at 100 uM by Ellman's assay. The arrangement: scale not given: the % may be the effect or the level left.
For experiment [7], the target named is Acetylcholinesterase (Electrophorus electricus) (UniProt O42275). Put plainly: Inhibition of electric eel AChE at 10 uM by Ellman's assay.
Experiment [8] has the same target. The experiment can be described thus: Inhibition of electric eel AChE at 100 uM by Ellman's assay.
The target of experiment [9] is Acetylcholinesterase (Homo sapiens) (UniProt P22303). Put plainly: Inhibition of human recombinant AChE at 10 uM by Ellman's assay.
Experiment [10] shares this target. The experiment can be described thus: Inhibition of human recombinant AChE at 100 uM by Ellman's assay.
Experiment [11] has as its target Acetylcholinesterase (Electrophorus electricus) (UniProt O42275). The experiment can be described thus: Inhibition of electric eel AChE at 1 mM by Ellman's assay.
Experiment [12] concerns the target Acetylcholinesterase (Homo sapiens) (UniProt P22303). The experiment can be described thus: Inhibition of human recombinant AChE at 1 mM by Ellman's assay.

Consider `O/N=C\c1ccc[n+](CCC[n+]2cccc(/C=N/O)c2)c1`, for which the Activity in experiment [1] is 56%; in [2], 15%; in [3] it was 50%; in experiment [4], 1%; in experiment [5], 2%; in experiment [6], 10%.

With `NC(=O)c1cc[n+](-c2ccc(-[n+]3ccc(C(N)=O)cc3)o2)cc1`, the Activity in experiment [1] was 0%; in [2] it was 0%; in experiment [3], 1%; in experiment [4], 0%; in experiment [5], 0%; in experiment [6] it was 0%.

Take `CCOP(=O)(OCC)Oc1ccc([N+](=O)[O-])cc1`: the inhibition in experiment [7], in experiment [8], in experiment [9] and in [10] was 100% each time.

Consider `O/N=C/c1cc[n+](-c2ccc(-[n+]3ccc(/C=N/O)cc3)s2)cc1`, for which the inhibition in [11] was 87%; in experiment [7], 3%; in experiment [8] it was 28%; in [12], 85%; in experiment [9] it was 0%; in experiment [10] it was 31%. In addition, the Activity in [1] was determined as 3%; in experiment [2] it was 47%; in experiment [3], 24%; in [4], 0%; in experiment [5], 11%; in [6] it was 5%.

With `NC(=O)c1cc[n+](CCC[n+]2cccc(/C=N/O)c2)cc1`, the Activity in experiment [1] is 38%; in [2], 4%; in experiment [3] it was 28%; in [4], 19%; in [5] it was 2%; in experiment [6], 12%.

Turning to `O/N=C/c1ccc[n+](-c2ccc(-[n+]3cccc(/C=N/O)c3)o2)c1`, the Activity in experiment [1] was found to be 7%; in experiment [2], 8%; in [3] it was 14%; in [4], 0%; in experiment [5], 1%; in experiment [6], 5%.

In the case of `O/N=C/c1cccc[n+]1-c1ccc(-[n+]2ccccc2/C=N/O)o1`, the Activity in experiment [1] was 3%; in [2], 2%; in [3], 10%; in [4], 3%; in experiment [5], 1%; in experiment [6] it was 1%.

In the case of `O/N=C/c1cccc[n+]1COC[n+]1ccccc1/C=N/O`, the Activity in [1] came out at 6%; in [2], 12%; in experiment [3] it was 21%; in experiment [4], 0%; in [5], 3%; in [6] it was 3%.

`O/N=C/c1cccc[n+]1-c1cc(-[n+]2ccccc2/C=N/O)on1`: the Activity in [1] was 0%; in [2], 0%; in experiment [3], 0%; in [4] it was 0%; in experiment [5], 1%; in experiment [6], 1%.

As for `O/N=C/c1cc[n+](CCC[n+]2ccc(/C=N/O)cc2)cc1`, the inhibition came out at 29% in [11]; 0% in [7]; 0% in [8]; 23% in experiment [12]; 0% in experiment [9]; 13% in experiment [10].

`O/N=C/c1ccc[n+](-c2ccc(-[n+]3cccc(/C=N/O)c3)s2)c1`: the Activity in experiment [1] is 0%; in [2], 14%; in [3], 2%; in [4], 0%; in experiment [5], 4%; in experiment [6], 2%.

`O/N=C/c1cc[n+](-c2cc(-[n+]3ccc(/C=N/O)cc3)on2)cc1`: the Activity was 4% in experiment [1]; 31% in experiment [2]; 29% in experiment [3]; 0% in experiment [4]; 4% in experiment [5]; 7% in [6].

`NC(=O)c1cc[n+](CCCC[n+]2ccccc2/C=N/O)cc1`: the Activity in experiment [1] was found to be 59%; in experiment [2], 25%; in experiment [3], 74%; in experiment [4] it was 12%; in experiment [5], 4%; in experiment [6], 20%.

As to `NC(=O)c1cc[n+](CCC[n+]2ccccc2/C=N/O)cc1`, the Activity stood at 16% in [1]; 3% in experiment [2]; 18% in experiment [3]; 1% in [4]; 1% in [5]; 4% in experiment [6].

As to `NC(=O)c1cc[n+](-c2ccc(-[n+]3ccc(/C=N/O)cc3)s2)cc1`, the inhibition in experiment [11] stood at 55%; in [7], 0%; in experiment [8], 5%; in [12], 82%; in [9], 0%; in experiment [10], 15%. For the same compound, the Activity in [1] was determined as 17%; in experiment [2], 49%; in [3], 52%; in experiment [4], 1%; in experiment [5], 7%; in experiment [6], 6%.

Take `O/N=C/c1cc[n+](-c2ccc(-[n+]3ccc(/C=N/O)cc3)o2)cc1`: the inhibition in [11] came out at 74%; in experiment [7], 0%; in [8] it was 16%; in [12] it was 78%; in [9] it was 0%; in [10], 16%. Moreover, the Activity was 6% in [1]; 52% in experiment [2]; 38% in experiment [3]; 0% in experiment [4]; 7% in experiment [5]; 15% in [6].

On to `O/N=C/c1cccc[n+]1CCC[n+]1ccccc1/C=N/O`, for which the Activity in experiment [1] was found to be 0%; in experiment [2], 7%; in [3], 5%; in experiment [4] it was 1%; in [5] it was 1%; in experiment [6], 1%.

With `O/N=C/c1cccc[n+]1CCCC[n+]1ccccc1/C=N/O`, the Activity in experiment [1] was 0%; in experiment [2], 33%; in experiment [3], 6%; in experiment [4], 0%; in experiment [5], 3%; in experiment [6], 1%.

With `NC(=O)c1cc[n+](-c2ccc(-[n+]3cccc(/C=N/O)c3)s2)cc1`, the Activity in [1] was found to be 5%; in [2] it was 3%; in [3], 13%; in experiment [4], 0%; in [5], 2%; in experiment [6], 2%.

With `O/N=C\c1ccc[n+](COC[n+]2cccc(/C=N/O)c2)c1`, the Activity is 49% in experiment [1]; 3% in [2]; 19% in [3]; 1% in experiment [4]; 2% in [5]; 4% in [6].

On to `NC(=O)c1cc[n+](CCCC[n+]2cccc(/C=N/O)c2)cc1`, for which the Activity in [1] worked out at 38%; in experiment [2], 9%; in experiment [3], 40%; in experiment [4] it was 20%; in [5] it was 2%; in experiment [6] it was 13%.

In the case of `O/N=C/c1ccc[n+](CCCC[n+]2cccc(/C=N/O)c2)c1`, the Activity in experiment [1] turned out to be 21%; in [2] it was 22%; in experiment [3], 45%; in experiment [4] it was 1%; in [5], 3%; in experiment [6], 11%.

For the compound `O/N=C/c1cc[n+](CCCC[n+]2ccc(/C=N/O)cc2)cc1`, the Activity in experiment [1] stood at 28%; in experiment [2], 68%; in experiment [3], 58%; in [4], 0%; in [5], 14%; in experiment [6], 26%.

Take `O/N=C/c1ccc[n+](-c2cc(-[n+]3cccc(/C=N/O)c3)on2)c1`: the Activity came out at 0% in [1]; 1% in experiment [2]; 0% in [3]; 1% in experiment [4]; 1% in experiment [5]; 0% in [6].

Take `NC(=O)c1cc[n+](CCC[n+]2ccc(/C=N/O)cc2)cc1`: the Activity in experiment [1] amounted to 77%; in [2], 56%; in experiment [3], 80%; in experiment [4], 64%; in [5] it was 10%; in experiment [6], 35%.
